# From ChEMBL document CHEMBL4340540, “3-Substituted Quinolines as RORγt Inverse Agonists” (Bioorg Med Chem Lett, 2019)
# By UniProt entry, the sequences of proteins in these tests, tags left out. Where a name states a change or a piece, a line headed by the entry shows the natural chain unless it says otherwise.
# UniProt P51449: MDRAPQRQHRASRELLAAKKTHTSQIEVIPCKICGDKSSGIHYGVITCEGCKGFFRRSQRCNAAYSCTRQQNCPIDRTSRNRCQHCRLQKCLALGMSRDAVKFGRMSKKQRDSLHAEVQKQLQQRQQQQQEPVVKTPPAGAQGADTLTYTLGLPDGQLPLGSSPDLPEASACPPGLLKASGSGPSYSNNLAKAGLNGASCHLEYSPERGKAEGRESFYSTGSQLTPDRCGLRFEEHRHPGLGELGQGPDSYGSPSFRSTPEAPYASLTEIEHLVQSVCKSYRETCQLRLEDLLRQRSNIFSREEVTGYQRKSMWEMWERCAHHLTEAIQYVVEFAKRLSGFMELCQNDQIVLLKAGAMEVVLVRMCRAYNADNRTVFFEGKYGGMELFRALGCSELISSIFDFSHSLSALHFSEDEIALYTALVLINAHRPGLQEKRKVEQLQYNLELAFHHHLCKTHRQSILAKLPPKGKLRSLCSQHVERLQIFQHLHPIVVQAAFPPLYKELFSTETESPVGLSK
# Molecular target: T1, Nuclear receptor ROR-gamma (Homo sapiens, UniProt P51449)
row,Structure (SMILES),IC50 [nM]
1,COc1nc2ccc(C(O)(c3cnnn3C)C3CN(C(C)=O)C3)cc2c(Cl)c1CN1CCC(C(F)(F)F)CC1 (centres undefined),166
2,COc1nc2ccc(C(O)(c3cnc(C)n3C)C3CN(C(C)=O)C3)cc2c(Cl)c1CN1CCC(C(F)(F)F)CC1 (centres undefined),313
3,COc1nc2ccc(C(O)(c3ccc(C(F)(F)F)nc3)C3CN(C(C)=O)C3)cc2c(Cl)c1CN1CCC(C(F)(F)F)CC1 (centres undefined),50

# Molecular target: T1, Nuclear receptor ROR-gamma
# Remark: another data set of the same source
row,Structure (SMILES),Kd [nM]
1,COc1nc2ccc(C(O)(c3cnc(C)n3C)C3CCOCC3)cc2c(Cl)c1CN1CCC(C(F)(F)F)CC1 (centres undefined),0.6
2,COc1nc2ccc(C(O)(c3cnnn3C)C3CN(C(C)=O)C3)cc2c(Cl)c1CN1CCC(C(F)(F)F)CC1 (centres undefined),18.8
3,COc1nc2ccc(C(O)(c3ccc(C)nc3C)c3cnnn3C)cc2c(Cl)c1CC(C)C (centres undefined),412
4,COc1nc2ccc([C@@](O)(c3ccc(C(F)(F)F)nc3)c3cncn3C)cc2c(Cl)c1CN1CCC(C(F)(F)F)CC1,1.1

# Molecular target: T1, Nuclear receptor ROR-gamma
# Remark: another data set of the same source
row,Structure (SMILES),IC50 [nM]
1,COc1nc2ccc(C(O)(c3ccc(C)nc3C)c3cnnn3C)cc2c(Cl)c1CC1CC1 (centres undefined),30
2,COc1nc2ccc([C@@](O)(c3ccc(C(F)(F)F)nc3)c3cncn3C)cc2c(Cl)c1CN1CCC(C(F)(F)F)CC1,61

# The next lines start with the values.
row,IC50 [nM],Structure (SMILES)
1,327,COc1nc2ccc(C(O)(c3ccc(C)nc3C)c3cnnn3C)cc2c(Cl)c1C (centres undefined)
2,122,COc1nc2ccc(C(O)(c3ccc(C)nc3C)c3cnnn3C)cc2c(Cl)c1CN1CCC(n2cccn2)CC1 (centres undefined)
3,193,COc1nc2ccc(C(O)(c3ccc(C)nc3C)c3cnnn3C)cc2c(Cl)c1OC1CCOCC1 (centres undefined)
4,844,COc1nc2ccc(C(O)(c3ccc(C)nc3C)c3cnnn3C)cc2c(Cl)c1CC(C)C (centres undefined)

# Molecular target: T1, Nuclear receptor ROR-gamma
# Remark: another data set of the same source
row,Structure (SMILES),IC50 [nM]
1,COc1nc2ccc([C@@](O)(c3ccc(C(F)(F)F)nc3)c3cncn3C)cc2c(Cl)c1CN1CCC(C(F)(F)F)CC1,17
